Test results published in ChEMBL document CHEMBL1129408, “Development of novel, potent, and selective dopamine reuptake inhibitors through alteration of the piperazine ring of 1-[2-(diphenylmethoxy)ethyl]-and 1-[2-[bis(4-fluorophenyl)methoxy]ethyl]-4-(3-phenylpropyl)piperazines (GBR 12935 and GBR 12909)” (J Med Chem, 1996).

Protein sequences, listed by entry. Tags and fused reporters are not part of them.
UniProt P31652, whole entry: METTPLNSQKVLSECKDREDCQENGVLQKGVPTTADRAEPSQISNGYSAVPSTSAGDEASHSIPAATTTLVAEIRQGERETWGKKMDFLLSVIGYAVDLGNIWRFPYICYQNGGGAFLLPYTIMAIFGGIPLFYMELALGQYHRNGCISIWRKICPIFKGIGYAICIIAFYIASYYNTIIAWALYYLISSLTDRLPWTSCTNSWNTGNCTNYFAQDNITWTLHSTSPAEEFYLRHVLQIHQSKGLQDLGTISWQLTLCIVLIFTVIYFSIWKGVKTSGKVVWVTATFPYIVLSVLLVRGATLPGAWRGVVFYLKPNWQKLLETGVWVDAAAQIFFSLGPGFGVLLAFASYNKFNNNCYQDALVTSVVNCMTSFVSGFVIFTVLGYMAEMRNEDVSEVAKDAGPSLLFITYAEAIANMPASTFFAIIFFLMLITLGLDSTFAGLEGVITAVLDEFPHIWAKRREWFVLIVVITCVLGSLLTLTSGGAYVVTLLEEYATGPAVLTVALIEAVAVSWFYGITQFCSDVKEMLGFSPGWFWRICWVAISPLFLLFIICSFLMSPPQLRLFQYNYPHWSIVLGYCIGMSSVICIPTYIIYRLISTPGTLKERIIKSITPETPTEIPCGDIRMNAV

Biological target: Sodium-dependent serotonin transporter (Rattus norvegicus, UniProt P31652)
Assay: Inhibition of [3H]5-HT reuptake at rat serotonin transporter

`COC(=O)[C@@H]1C2CC[C@@H](C[C@@H]1OC(=O)c1ccccc1)N2C` (single isomer, unassigned) [COCAINE] was tested, and the IC50 was 0.304 µM.
